Assay results: patent US5591749A, “Imidazopyridines as serotonergic 5-HT3 -antagonists” (G. D. Searle & Co., priority 1995, dated 1997)

By UniProt entry, the sequences of proteins in these tests, tags left out. Residues count along the entry.
UniProt P35563, 24-483: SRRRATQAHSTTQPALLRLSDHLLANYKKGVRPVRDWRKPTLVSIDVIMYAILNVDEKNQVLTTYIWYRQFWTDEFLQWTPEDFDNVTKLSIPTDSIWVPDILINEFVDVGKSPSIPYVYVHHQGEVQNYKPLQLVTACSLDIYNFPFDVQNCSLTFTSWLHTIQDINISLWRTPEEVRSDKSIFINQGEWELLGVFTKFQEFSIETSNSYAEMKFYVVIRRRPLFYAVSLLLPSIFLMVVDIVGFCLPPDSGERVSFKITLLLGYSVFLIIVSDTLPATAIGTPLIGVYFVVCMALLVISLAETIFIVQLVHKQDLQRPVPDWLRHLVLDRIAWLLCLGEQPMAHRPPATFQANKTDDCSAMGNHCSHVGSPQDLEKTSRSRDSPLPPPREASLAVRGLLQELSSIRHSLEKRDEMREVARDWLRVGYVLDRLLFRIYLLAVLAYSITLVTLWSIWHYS

Molecular target: T1, 5-HT3 receptor (Rattus norvegicus, UniProt P35563)
T1 construct: Brain cortices are obtained from male rats and a membrane fraction prepared by standard techniques; from tissue; host or cells: rat brain cortex membranes
Assay: [3H]-GR65630 radioligand receptor binding assay, rat brain cortex membranes
Conditions: 0.2 nM [3H]-GR65630
Procedure: 5-HT3 antagonism can be determined by the radioligand receptor binding assay as described herein and in the in vivo Bezold-Jarisch reflex procedure.
GR65630 binds to the 5-HT3 receptor. Brain cortices are obtained from male rats and a membrane fraction prepared by standard techniques. 0.04 mg of membrane prep is incubated with 0.2 nM [^3 H]-GR656630 for 60 minutes at 22° C. […] Membranes are filtered and washed 3 times and the filters are counted to determine [3H]-GR65630 specifically bound.*
Effect of Reference Compounds on
Kilpatrick GJ, Jones BJ and Tyers MB. Identification and distribution of 5-HT3 receptors in rat brain using radioligand binding. Nature, 330: 746-748, 1987.

NCCc1c[nH]c2ccc(O)cc12 [Example 5-HT]
Hill Coefficient: 1.0
